Source: patent US20250270224A1, “POLYCYCLIC POLY(ADP-RIBOSE) POLYMERASE SELECTIVE INHIBITOR” (XUANZHU BIOPHARMACEUTICAL CO., LTD., priority 2022, published 2025)
pIC50: −log10 of the molar value.

Amino acid sequences for entries named in this document (tags omitted).
UniProt P09874, whole entry: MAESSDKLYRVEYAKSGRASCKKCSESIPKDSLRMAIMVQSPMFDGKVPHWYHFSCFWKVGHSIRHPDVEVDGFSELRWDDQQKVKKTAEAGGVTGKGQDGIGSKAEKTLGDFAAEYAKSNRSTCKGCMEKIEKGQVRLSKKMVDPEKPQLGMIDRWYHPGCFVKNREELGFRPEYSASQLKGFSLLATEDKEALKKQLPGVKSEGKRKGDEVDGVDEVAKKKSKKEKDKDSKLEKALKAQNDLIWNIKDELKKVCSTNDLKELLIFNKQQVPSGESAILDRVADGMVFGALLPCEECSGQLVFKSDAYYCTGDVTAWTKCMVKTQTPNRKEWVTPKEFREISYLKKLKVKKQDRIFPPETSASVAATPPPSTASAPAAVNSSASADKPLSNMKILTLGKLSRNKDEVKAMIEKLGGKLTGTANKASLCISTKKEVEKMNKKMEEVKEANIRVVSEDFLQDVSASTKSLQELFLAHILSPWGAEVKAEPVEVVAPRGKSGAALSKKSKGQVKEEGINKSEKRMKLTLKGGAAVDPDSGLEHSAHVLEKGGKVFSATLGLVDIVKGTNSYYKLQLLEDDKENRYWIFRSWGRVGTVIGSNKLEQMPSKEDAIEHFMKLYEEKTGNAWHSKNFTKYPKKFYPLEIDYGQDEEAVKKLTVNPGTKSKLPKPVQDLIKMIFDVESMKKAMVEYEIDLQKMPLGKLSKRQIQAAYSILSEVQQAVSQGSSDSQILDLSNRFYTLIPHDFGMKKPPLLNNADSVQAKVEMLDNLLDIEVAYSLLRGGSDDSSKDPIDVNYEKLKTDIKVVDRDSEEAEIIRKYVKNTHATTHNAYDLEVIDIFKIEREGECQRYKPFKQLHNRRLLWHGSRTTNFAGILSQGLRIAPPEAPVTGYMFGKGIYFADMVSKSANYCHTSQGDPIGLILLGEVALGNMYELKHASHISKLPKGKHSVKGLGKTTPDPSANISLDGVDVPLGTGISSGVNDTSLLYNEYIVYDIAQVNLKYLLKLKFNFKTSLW
UniProt Q9UGN5, whole entry: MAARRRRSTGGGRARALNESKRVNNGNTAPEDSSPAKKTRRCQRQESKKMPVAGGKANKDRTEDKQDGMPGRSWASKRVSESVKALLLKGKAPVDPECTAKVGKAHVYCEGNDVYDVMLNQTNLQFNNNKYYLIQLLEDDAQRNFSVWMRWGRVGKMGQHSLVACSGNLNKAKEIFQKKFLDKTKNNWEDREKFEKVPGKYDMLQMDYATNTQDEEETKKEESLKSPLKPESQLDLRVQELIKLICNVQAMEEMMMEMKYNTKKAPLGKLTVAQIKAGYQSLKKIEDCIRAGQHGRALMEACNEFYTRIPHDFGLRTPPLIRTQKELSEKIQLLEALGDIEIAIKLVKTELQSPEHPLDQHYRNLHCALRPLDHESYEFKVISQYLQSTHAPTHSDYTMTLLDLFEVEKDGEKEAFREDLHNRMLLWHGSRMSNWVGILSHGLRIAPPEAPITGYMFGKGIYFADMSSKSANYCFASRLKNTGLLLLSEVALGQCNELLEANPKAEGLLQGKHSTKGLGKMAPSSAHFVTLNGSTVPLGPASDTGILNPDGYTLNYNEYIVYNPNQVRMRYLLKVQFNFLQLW

What was measured:
PARP1 = PARP1 (Homo sapiens (Human), UniProt P09874); assay: In-vitro enzymatic activity, PARP1 (histone-coated plate, chemiluminescence detection); format: biochemical; conditions: read-out: PARP1 IC50; class symbols
MDA-MB-436 cells = assay: In-vitro cytological inhibitory activity (CelltiterGlo assay), 7 days culture; format: cell-based; conditions: read-out: MDA-MB-436 (IC50), BRCA1 mutated human breast cancer cells, CTG
PARP2 = PARP2 (Homo sapiens (Human), UniProt Q9UGN5); assay: In-vitro enzymatic activity, PARP2 (histone-coated plate, chemiluminescence detection); format: biochemical; conditions: read-out: PARP2 IC50; class symbols

| pIC50 (PARP1) | pIC50 (MDA-MB-436 cells) | pIC50 (PARP2) | SMILES |
| --- | --- | --- | --- |
| > 9.00 | 8.26 | 6.00 to 7.00 | CNC(=O)c1ccc(N2CCN(Cc3cc4c5c(c3)c(F)cn5C(C)C(=O)N4)CC2)c(F)n1 (single isomer, unassigned) [Compound 41-2] |
| > 9.00 | 8.23 | 6.00 to 7.00 | CNC(=O)c1ccc(N2CCN(Cc3cc4c5c(c3)c(F)cn5C(C)C(=O)N4)CC2)c(F)n1 (single isomer, unassigned) [Compound 41-1] |
